# Source: patent US9611261B2 (AMGEN INC., priority 2013, dated 2017)
# Tested on: Aβ 40 in conditioned medium of cells stably expressing Amyloid Precursor Protein (APP)
# Assay: In vitro BACE cell-based assay (Aβ 40 sandwich ELISA of conditioned medium)
# Details: read-out: BACE cell assay IC50
row,Compound,IC50 [nM]
1,"C#CCOc1cnc(C(=O)Nc2cc(F)c(Cl)c([C@]3(CF)N=C(N)O[C@H]4C[C@H]43)c2)cn1 (racemic) [Example 140, N-(3-((1R/S,5S/R,6R/S)-3-amino-5-(fluoromethyl)-2-oxa-4-azabicyclo[4.1.0]hept-3-en-5-yl)-4-chloro-5-fluorophenyl)-5-(prop-2-yn-1-yloxy)pyrazine-2-carboxamide]",5.9
2,"N#Cc1cnc2c(c1)CCC[C@@H]2Nc1ccc(F)c([C@@]2(C(F)F)N=C(N)O[C@@H]3C[C@@H]32)c1 (mixture of isomers) [Example 403, (R)-8-((3-((1R,5S,6R)-3-amino-5-(difluoromethyl)-2-oxa-4-azabicyclo[4.1.0]hept-3-en-5-yl)-4-fluorophenyl)amino)-5,6,7,8-tetrahydroquinoline-3-carbonitrile and (S)-8-((3-((1R,5S,6R)-3-amino-5-(difluoromethyl)-2-oxa-4-azabicyclo[4.1.0]hept-3-en-5-yl)-4-fluorophenyl)amino)-5,6,7,8-tetrahydroquinoline-3-carbonitrile]",677
3,NC1=N[C@@](c2cc(-n3cc(C#CC4CC4)cn3)ccc2F)(C(F)F)[C@H]2C[C@H]2O1 [Example 435],4790
4,N#Cc1cnc2c(c1)CC[C@@H]2Nc1ccc(F)c([C@@]2(C(F)F)N=C(N)O[C@@H]3C[C@@H]32)c1 [Example 404],252
5,"N#Cc1cnc2c(Nc3ccc(Cl)c([C@]4(C(F)F)N=C(N)O[C@H]5C[C@H]54)c3)ncc(F)c2c1 [Example 349, 8-((3-((1(R,S),5(S,R),6(R,S))-3-amino-5-(difluoromethyl)-2-oxa-4-azabicyclo[4.1.0]hept-3-en-5-yl)-4-chlorophenyl)amino)-5-fluoro-1,7-naphthyridine-3-carbonitrile]",222
6,"NC1=N[C@](c2cc(-c3nc4ccc(Cl)cc4o3)ccc2F)(C(F)F)[C@@H]2C[C@@H]2O1 [Example 425, (1S,5R,6S)-5-(5-(6-chlorobenzo[d]oxazol-2-yl)-2-fluorophenyl)-5-(difluoromethyl)-2-oxa-4-azabicyclo[4.1.0]hept-3-en-3-amine]",590
7,"NC1=N[C@@](c2cc(-c3nc4ccc(Cl)cc4o3)ccc2F)(C(F)F)[C@H]2C[C@H]2O1 [Example 426, (1R,5S,6R)-5-(5-(6-chlorobenzo[d]oxazol-2-yl)-2-fluorophenyl)-5-(difluoromethyl)-2-oxa-4-azabicyclo[4.1.0]hept-3-en-3-amine]",3100
8,"N#Cc1cnc2c(Nc3ccc(Cl)c([C@]4(C(F)F)N=C(N)O[C@H]5C[C@H]54)c3)ncc(F)c2c1 [Example 351, 8-((3-((1S,5R,6S)-3-amino-5-(difluoromethyl)-2-oxa-4-azabicyclo[4.1.0]hept-3-en-5-yl)-4-chlorophenyl)amino)-5-fluoro-1,7-naphthyridine-3-carbonitrile]",2520
9,"NC1=N[C@@](CF)(c2cc(NC(=O)c3ccc(Cl)cn3)ccc2Cl)[C@@H]2C[C@@H]2O1 [Example 271, N-(3-((1S,5R,6S)-3-amino-5-(fluoromethyl)-2-oxa-4-azabicyclo[4.1.0]hept-3-en-5-yl)-4-chlorophenyl)-5-chloropicolinamide]",2330
10,"N#Cc1ccc2c(c1)OCC[C@@H]2Nc1ccc(F)c([C@@]2(C(F)F)N=C(N)O[C@@H]3C[C@@H]32)c1 (mixture of isomers) [Example 383, (R)-4-((3-((1R,5S,6R)-3-amino-5-(difluoromethyl)-2-oxa-4-azabicyclo[4.1.0]hept-3-en-5-yl)-4-fluorophenyl)amino)chroman-7-carbonitrile and (S)-4-((3-((1R,5S,6R)-3-amino-5-(difluoromethyl)-2-oxa-4-azabicyclo[4.1.0]hept-3-en-5-yl)-4-fluorophenyl)amino)chroman-7-carbonitrile]",352
11,"NC1=N[C@](c2cc(NC(=O)c3nn(C(F)F)cc3Cl)ccc2Cl)(C(F)F)[C@@H]2C[C@@H]2O1 [Example 225, N-(3-((1S,5R,6S)-3-amino-5-(difluoromethyl)-2-oxa-4-azabicyclo[4.1.0]hept-3-en-5-yl)-4-chlorophenyl)-4-chloro-1-(difluoromethyl)-1H-pyrazole-3-carboxamide]",3820
12,"Cc1cc(C#N)cnc1C(=O)Nc1cc(F)c(Cl)c([C@]2(CF)N=C(N)O[C@H]3C[C@H]32)c1 [Example 139, N-(3-((1S,5R,6S)-3-amino-5-(fluoromethyl)-2-oxa-4-azabicyclo[4.1.0]hept-3-en-5-yl)-4-chloro-5-fluorophenyl)-5-cyano-3-methylpicolinamide]",2240

# Continued, values first:
row,IC50 [nM],Compound
1,27.9,"NC1=N[C@@](c2cccc(NC(=O)c3ccc(Cl)cn3)c2)(C(F)F)[C@H]2C[C@H]2O1 [Example 265, N-(3-((1R,5S,6R)-3-amino-5-(difluoromethyl)-2-oxa-4-azabicyclo[4.1.0]hept-3-en-5-yl)phenyl)-5-chloropicolinamide]"
2,49.4,"COc1cnc2c(Nc3cc(Cl)c(F)c([C@@]4(CF)N=C(N)O[C@@H]5C[C@@H]54)c3)nccc2n1 [Example 356, (1R,5S,6R)-5-(3-chloro-2-fluoro-5-((2-methoxypyrido[3,4-b]pyrazin-5-yl)amino)phenyl)-5-(fluoromethyl)-2-oxa-4-azabicyclo[4.1.0]hept-3-en-3-amine]"
3,16.2,"Cc1cc(C#N)cnc1C(=O)Nc1cc(F)c(Cl)c([C@]2(CF)N=C(N)O[C@H]3C[C@H]32)c1 (racemic) [Example 137, N-(3-((1R/S,5S/R,6R/S)-3-amino-5-(fluoromethyl)-2-oxa-4-azabicyclo[4.1.0]hept-3-en-5-yl)-4-chloro-5-fluorophenyl)-5-cyano-3-methylpicolinamide]"
4,24.2,"NC1=N[C@@](CF)(c2cc(NC(=O)c3ccc(Cl)cn3)ccc2Cl)[C@@H]2CC2O1 (mixture of isomers) [Example 276, N-(3-(((1R,S), (5S,R), (6R,S))-3-amino-5-(fluoromethyl)-2-oxa-4-azabicyclo[4.1.0]hept-3-en-5-yl)-4-chlorophenyl)-5-chloropicolinamide]"
5,16.9,"NC1=N[C@](c2cc(NC(=O)c3nn(C(F)F)cc3Cl)ccc2Cl)(C(F)F)[C@@H]2C[C@@H]2O1 (racemic) [Example 220, N-(3-((1(R,S),5(S,R),6(R,S))-3-amino-5-(difluoromethyl)-2-oxa-4-azabicyclo[4.1.0]hept-3-en-5-yl)-4-chlorophenyl)-4-chloro-1-(difluoromethyl)-1H-pyrazole-3-carboxamide]"
6,31.3,"Cc1cc(NC(=O)c2ccc(Cl)cc2CF)cc([C@@]2(C(F)F)N=C(N)O[C@@H]3C[C@@H]32)c1F [Example 444, N-(3-((1R,5S,6R)-3-amino-5-(difluoromethyl)-2-oxa-4-azabicyclo[4.1.0]hept-3-en-5-yl)-4-fluoro-5-methylphenyl)-4-chloro-2-(fluoromethyl)benzamide]"
7,320,"CNc1cnc(C(=O)Nc2ccc(F)c([C@@]3(C(F)F)N=C(N)O[C@@H]4C[C@@H]43)c2)nc1 [Example 439, N-(3-((1R,5S,6R)-3-amino-5-(difluoromethyl)-2-oxa-4-azabicyclo[4.1.0]hept-3-en-5-yl)-4-fluorophenyl)-5-(methylamino)pyrimidine-2-carboxamide dihydrochloride]"
8,289,"NC1=N[C@@](c2cccc(NC(=O)c3ccc(Cl)cn3)c2)(C(F)F)[C@H]2C[C@H]2O1 [Example 263, N-(3-([(1R,S),(5S,R),(6R,S)]-3-amino-5-(difluoromethyl)-2-oxa-4-azabicyclo[4.1.0]hept-3-en-5-yl)phenyl)-5-chloropicolinamide]"

# Counter-ions that a name gives are not always drawn.
